Assay [1] concerns the target Sigma non-opioid intracellular receptor 1 (Rattus norvegicus) (UniProt Q9R0C9). Nature of the assay: Displacement of (+)-3PPP from sigma receptor of rat brain membrane.
The target of assay [2] is D(2) dopamine receptor (Rattus norvegicus) (UniProt P61169). As to the kind of experiment: Displacement of spiperone from dopamine receptor D2 of rat brain membrane.

Sequences of proteins named here, by UniProt entry; tags and fusion partners are left off.
UniProt Q9R0C9, whole entry: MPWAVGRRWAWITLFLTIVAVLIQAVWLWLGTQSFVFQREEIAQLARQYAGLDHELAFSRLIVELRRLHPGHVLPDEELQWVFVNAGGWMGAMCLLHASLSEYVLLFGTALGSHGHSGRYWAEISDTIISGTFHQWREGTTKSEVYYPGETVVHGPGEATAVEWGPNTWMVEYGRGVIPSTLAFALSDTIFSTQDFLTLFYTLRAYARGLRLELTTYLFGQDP
UniProt P61169, whole entry: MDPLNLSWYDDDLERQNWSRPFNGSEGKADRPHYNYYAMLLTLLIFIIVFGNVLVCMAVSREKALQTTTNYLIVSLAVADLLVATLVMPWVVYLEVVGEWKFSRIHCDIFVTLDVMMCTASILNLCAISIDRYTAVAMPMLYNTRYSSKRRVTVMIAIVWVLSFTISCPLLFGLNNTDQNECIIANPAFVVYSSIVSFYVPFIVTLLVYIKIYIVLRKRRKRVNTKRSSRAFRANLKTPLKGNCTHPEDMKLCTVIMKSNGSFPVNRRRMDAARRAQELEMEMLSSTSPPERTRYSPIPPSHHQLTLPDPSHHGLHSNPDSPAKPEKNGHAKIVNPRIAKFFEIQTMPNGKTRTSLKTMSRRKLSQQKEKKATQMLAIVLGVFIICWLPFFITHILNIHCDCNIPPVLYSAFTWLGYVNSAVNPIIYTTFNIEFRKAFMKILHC

With `CN1CCC[C@@H](c2cccc(O)c2)C1`, the figures for the Log IC50 in assay [1] and in assay [2] were 0.28 µM and 0.29 µM, respectively.

The record behind these values is ChEMBL document CHEMBL1127535, “Molecular similarity, quantitative chirality, and QSAR for chiral drugs” (J Med Chem, 1994).
